This data set deals with J774 murine macrophages. The data set is described as follows: Non-specific cytotoxicity against J774 murine macrophages (MTT/formazan). The settings on record: 48 hours, MTT. It counts as cell-based. On the procedure:
The cellular viability was determined based on the conservation of mitochondrial activity by the MTT/formazan method.

Molecules are shown by their SMILES.

`CC(=O)N1CCN(c2ccc(OCC3COC(Cn4ccnc4)(c4ccc(Cl)cc4Cl)O3)cc2)CC1` (stereo not drawn) [Ketoconazole, reference compound]: the “PC J774 macrophages (%) (percentage of non-specific cytotoxicity)” value runs as follows: (100 μM compound) 86.0%; (200 μM compound) 98.0%; (400 μM compound) 87.0%.
